Data taken from publication PMC5618334, “Hydrocarbon constrained peptides – understanding preorganisation and binding affinity” (Chemical Science, 2016).

Protein sequences, listed by entry. Tags and fused reporters are not part of them. Chains listed by the source or under a name are the forms on record and can include a tag or linker. Residues count along the entry.
UniProt Q07817, with tags, fused parts or gaps DEL26-81: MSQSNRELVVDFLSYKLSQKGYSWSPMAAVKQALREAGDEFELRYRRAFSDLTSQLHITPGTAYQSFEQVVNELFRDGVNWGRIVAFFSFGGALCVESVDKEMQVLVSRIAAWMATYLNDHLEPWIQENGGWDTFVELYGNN
UniProt Q07820, 172-327: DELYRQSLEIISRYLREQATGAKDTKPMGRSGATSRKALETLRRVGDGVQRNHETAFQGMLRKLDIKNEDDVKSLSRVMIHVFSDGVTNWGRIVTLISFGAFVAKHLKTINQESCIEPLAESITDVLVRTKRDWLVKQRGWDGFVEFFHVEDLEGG

What was measured:
Bcl-xL = target: T1, Bcl-xL (Homo sapiens, UniProt Q07817, DEL26-81); assay: Fluorescence anisotropy direct binding assay with Bcl-xL
T1 construct: pET28a His-SUMO Bcl-xL (1-198, missing 26-81); made in house; host or cells: E. coli Rosetta 2
Procedure: Direct titration experiments were also performed for FITC labelled BID peptides (Fig. 5). […]
(§1) constructs were over-expressed in the E. coli strain Rosetta 2. Cells were resuspended in 50mM TRIS pH 8.0, 500mM NaCl, 15mM Imidazole and lysed by sonication. The clarified lysate was applied to a 5ml HisTrap column equilibrated with 50mM TRIS pH 8.0, 500mM NaCl, 15mM Imidazole. The HisTrap was then washed with 10 CV of 50mM TRIS pH 8.0, 500mM NaCl, 15mM Imidazole followed by 10 CV 50mM TRIS pH 8.0, 500mM NaCl, 25mM Imidazole. The fusion proteins were eluted in 50mM TRIS pH 8.0, 500mM NaCl, 300mM Imidazole. […]
(§2) The buffers used for fluorescence anisotropy were either phosphate buffer (40 mM sodium phosphate, 200 mM sodium chloride, 0.02 mg ml-1 bovine serum albumin, pH 7.50) or Tris buffer (50 mM Tris, 140 mM sodium chloride, pH 7.50). […]
(§3) Assays were run in 96 or 384 well Optiplates and were scanned using a Perkin Elmer EnVisionTM 2103 MultiLabel plate reader. […]
(§4) Plates were read after 1 h […]
respectively. Plates were read after 1 h.
For all variants of the labelled BID peptides (FITC-BID-WT,FITC-BID-MM, FITC-BID-DM and FITC-BID-Aib), the direct binding assays were performed in Tris Buffer in 384 well plates. […] Plates were read after 2 hours of incubation, and read again after 4 and 18 hours to ensure complete equilibration.
Processing of fluorescence anisotropy data […]

Mcl-1/FITC-NOXA-B = target: T2, Mcl-1/FITC-NOXA-B (Homo sapiens, UniProt Q07820); assay: Fluorescence anisotropy competition assay, inhibition of Mcl-1/FITC-NOXA-B interaction; type: binding
T2 construct: His-SUMO (N, cleaved yes); made in house; host or cells: E. coli Rosetta 2
Procedure: To profile the binding behaviour of the constrained peptides we tested them in both competition displacement assays and direct binding assays. […] Of particular interest was the potential for the introduction of a constraint to have differential effects on protein specificity/selectivity. […] We next tested the constrained peptides in inhibition assays (Fig. 3a and b and Table 2). […]
as §1, with “Imidazole.” for “Imidazole. The fusion proteins were eluted in 50mM TRIS pH 8.0, 500mM NaCl, 300mM Imidazole.”
as §2, §3, §4
respectively. Plates were read after 1 h. […]
Processing of fluorescence anisotropy data
Fluorescence anisotropy data was processed using Microsoft Excel to calculate intensity, anisotropy […]

Kd (Bcl-xL) [nM]	IC50 (Mcl-1/FITC-NOXA-B) [nM]	SMILES
4 ± 3.7		CC[C@H](C)[C@H](NC(=O)[C@H](C)NC(=O)[C@H](CC(C)C)NC(=O)[C@H](CCC(N)=O)NC(=O)[C@H](CCCNC(=N)N)NC(=O)CNC(=O)[C@@H](NC(=O)[C@H](CCC(N)=O)NC(=O)CNC(C)=O)C(C)C)C(=O)N[C@H](C(=O)NCC(=O)N[C@@H](CC(=O)O)C(=O)N[C@@H](CC(=O)O)C(=O)N[C@H](C(=O)N[C@@H](CC(N)=O)C(=O)N[C@@H](CCCNC(=N)N)C(N)=O)[C@@H](C)CC)[C@@H](C)CC [BODIPY-BAK]
	700	CC[C@H](C)[C@H](NC(=O)[C@H](CCCNC(=N)N)NC(=O)[C@H](CCCNC(=N)N)NC(=O)[C@H](CC(C)C)NC(=O)[C@H](CCC(N)=O)NC(=O)[C@H](C)NC(=O)[C@H](CS)NC(=O)[C@H](CCC(=O)O)NC(=O)[C@H](CC(=O)O)NC(=O)[C@H](CCCCN)NC(=O)[C@H](CC(C)C)NC(=O)[C@H](CC(=O)O)NC(=O)[C@H](C)NC(=O)[C@@H]1CCCN1C(C)=O)C(=O)NCC(=O)N[C@@H](CC(=O)O)C(=O)N[C@@H](CCCCN)C(=O)N[C@H](C(=O)N[C@@H](CC(N)=O)C(=O)N[C@@H](CC(C)C)C(N)=O)C(C)C [NOXA-B]
